Values of other authors, collected in paper PMC3729039 (Molecular cancer therapeutics, 2013).

System: AR LBD
Settings: patients with CRPC post docetaxel treatment; cited from earlier work

## CNC(=O)c1ccc(N2C(=S)N(c3ccc(C#N)c(C(F)(F)F)c3)C(=O)C2(C)C)cc1F [enzalutamide]
  median overall survival advantage compared to placebo: 4.8 months
